Chains of the proteins cited; added tags and fusions are not shown.
UniProt P51677, whole entry: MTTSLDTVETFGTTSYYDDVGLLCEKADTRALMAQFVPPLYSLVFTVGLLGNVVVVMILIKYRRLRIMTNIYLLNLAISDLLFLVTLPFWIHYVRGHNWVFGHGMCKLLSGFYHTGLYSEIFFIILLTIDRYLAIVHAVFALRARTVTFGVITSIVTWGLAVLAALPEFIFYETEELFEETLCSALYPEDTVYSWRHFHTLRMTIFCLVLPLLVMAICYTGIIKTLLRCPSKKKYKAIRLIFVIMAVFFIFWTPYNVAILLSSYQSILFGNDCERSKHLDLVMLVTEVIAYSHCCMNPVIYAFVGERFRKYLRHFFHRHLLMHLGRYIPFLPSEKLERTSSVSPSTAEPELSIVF

The assay concerns the target human chemokine receptor CCR3 (Homo sapiens, UniProt P51677). Briefly: CCR3 receptor binding assay (SPA, 125I-eotaxin-1, membranes of hCCR3 transfected K562 cells). The settings on record: read-out: Affinity (Ki-value); CCR3-Receptor Binding Protocol, radioligand 125I-eotaxin-1.
For `N=c1c2c3c(sc2nc2n1CCC2=Cc1ccccc1Br)CCCC3`, the Ki fell in the range of 0.1 to 1 µM.

Regarding `CC(C)(C)c1cc2c(cc1Br)CN1CCC(=Cc3ccccc3Cl)C1=N2`, the Ki fell in the range of 1 to 10 µM.

As to `CN=c1c2ccccc2nc2n1CCC2=Cc1ccccc1Br`, the Ki is 0.1 to 1 µM.

Turning to `CC(C)(C)c1csc2nc3n(c(=N)c12)CCC3=Cc1ccccc1Br`, the Ki was 1 to 10 µM.

For `N=c1c2ccccc2nc2n1C(C(N)=O)CC2=Cc1ccccc1Br` (stereo not shown), the Ki lay within 1 to 10 µM.

In the case of `N=c1c2c(Cl)cccc2nc2n1CCC2=Cc1ccccc1Br`, the Ki fell in the range of 0.1 to 1 µM.

In the case of `CCC1CC(=Cc2ccccc2Cl)C2=Nc3ccccc3CN21` (stereo not shown), the Ki fell in the range of 0.1 to 1 µM.

With `N#CN=c1c2ccccc2nc2n1CCC2=Cc1ccccc1Br`, the Ki lay in the range of 1 to 10 µM.

With `COC(=O)C1CC(=Cc2ccccc2Br)c2nc3ccccc3c(=N)n21` (stereo not shown), the Ki lay within 0.1 to 1 µM.

Consider `Cc1cccc2nc3n(c(=N)c12)CCC3=Cc1ccccc1Br`, for which the Ki fell in the range of 0.1 to 1 µM.

Consider `Fc1ccc(C2CC(=Cc3ccccc3Br)C3=Nc4ccccc4CN32)cc1` (stereo not shown), for which the Ki was in the range of 1 to 10 µM.

For the molecule `N=c1c2c(F)cccc2nc2n1CCC2=Cc1ccccc1Br`, the Ki lay in the range of 0.1 to 1 µM.

Take `CCCCC1CC(=Cc2ccccc2Br)C2=Nc3ccccc3CN21` (stereo not shown): the Ki was 0.1 to 1 µM.

As usually defined, the Ki is a dissociation constant, usually derived from enzyme kinetics or from competition with a known ligand.

These data come from US7214703B2, “Pyrrolidinohydrochinazolines” (Boehringer Ingelheim International GmbH, priority 2003, dated 2007).
